Source: patent publication US6362163B1, “Parathyroid hormone-related peptide analogs” (The General Hospital Corporation, priority 1996, dated 2002)

Sequences of proteins named here, by UniProt entry; tags and fusion partners are left off. Residues count along the entry.
UniProt P49190, 25-550: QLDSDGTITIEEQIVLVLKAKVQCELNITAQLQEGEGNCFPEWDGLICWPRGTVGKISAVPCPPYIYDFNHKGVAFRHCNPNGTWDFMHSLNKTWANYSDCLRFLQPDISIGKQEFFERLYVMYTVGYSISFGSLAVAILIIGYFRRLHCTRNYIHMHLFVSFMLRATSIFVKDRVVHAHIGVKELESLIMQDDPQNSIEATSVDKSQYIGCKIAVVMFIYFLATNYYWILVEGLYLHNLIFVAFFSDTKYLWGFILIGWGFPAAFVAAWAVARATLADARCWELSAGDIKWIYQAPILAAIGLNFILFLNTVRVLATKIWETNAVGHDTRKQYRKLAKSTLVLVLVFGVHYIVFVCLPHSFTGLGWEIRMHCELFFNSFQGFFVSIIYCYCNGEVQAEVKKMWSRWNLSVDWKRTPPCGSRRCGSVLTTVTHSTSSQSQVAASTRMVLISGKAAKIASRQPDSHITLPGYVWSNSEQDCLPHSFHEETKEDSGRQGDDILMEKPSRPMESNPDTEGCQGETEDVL

T1: human PTH/PTHrP receptor (human, UniProt Q03431 27-593)
T1 construct: whole, on cells; Transiently expressed on COS-7 cells
T1 sequence (looked up): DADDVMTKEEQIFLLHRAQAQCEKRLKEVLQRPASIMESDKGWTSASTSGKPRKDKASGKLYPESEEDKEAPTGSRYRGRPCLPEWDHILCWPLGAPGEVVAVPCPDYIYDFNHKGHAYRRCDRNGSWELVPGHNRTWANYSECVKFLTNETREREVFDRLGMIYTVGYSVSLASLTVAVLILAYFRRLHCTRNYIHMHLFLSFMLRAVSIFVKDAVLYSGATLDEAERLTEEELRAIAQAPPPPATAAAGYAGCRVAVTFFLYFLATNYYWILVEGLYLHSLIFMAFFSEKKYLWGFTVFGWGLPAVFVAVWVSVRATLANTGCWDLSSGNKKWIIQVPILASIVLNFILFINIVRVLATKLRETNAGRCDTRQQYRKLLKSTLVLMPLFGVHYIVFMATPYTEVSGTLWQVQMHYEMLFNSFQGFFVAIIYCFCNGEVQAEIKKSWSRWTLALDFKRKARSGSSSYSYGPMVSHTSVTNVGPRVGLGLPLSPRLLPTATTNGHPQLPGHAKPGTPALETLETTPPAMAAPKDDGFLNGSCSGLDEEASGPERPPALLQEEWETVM


What was measured:
human PTH-2 receptor = target: T2, human PTH-2 receptor (human, UniProt P49190 25-550); assay: radioligand competition (tracer 125I-[Nle8,21,Tyr34]rPTH-(1-34)NH2) on transfected COS-7 cells, RT 2 h
T2 construct: whole, on cells; Transiently expressed on COS-7 cells
Experimental: (§1) Assays were performed for 2 hours at room temperature. Data are the mean (± s.e.m.) of IC$50$ values obtained from the number of experiments indicated (n).
(§2) Binding reactions were performed as described previously. Id. […] Incubations were at room temperature for 2 hours, except for experiments involving Scatchard analysis, which were performed at 4° C. for 6 hours. At the end of the binding reaction, the cells were rinsed 3 times with 0.5 ml of binding buffer, lysed with 0.5 ml of 5M NaOH, and the entire lysate was counted. […] Estimates of the number of receptors/cell derived from these studies assumed a single class of binding sites and a transfection efficiency of 20% (Abou-Samra, A. B. et al., *Proc. Natl. Acad. Sci* (*USA*) 89:2732–2736 (1992)).

human PTH/PTHrP receptor = target: T1, human PTH/PTHrP receptor; assay: as above
Experimental: as §1, §2

IC50 (human PTH-2 receptor) [nM]	IC50 (human PTH/PTHrP receptor) [nM]	Binder
624		LNSMERVEWLRKKLQDVHNY (C-terminal tyrosine-amide) [[Y34]hPTH-(15-34)NH2]
16	39	SVSEIQLMHNLGKHLNSMERVEWLRKKLQDVHNY (C-terminal tyrosine-amide, also called [Y34]hPTH-(1-34)NH2) [[Tyr^34]hPTH-(1-34)NH2]
249	5100	SVSEHQLMHNLGKHLNSMERVEWLRKKLQDVHNY (C-terminal tyrosine-amide, also called [H5]PTH-(1-34)) [[H5, Y34]hPTH-(1-34)NH2]
453	95	SVSEIQLMHNLGKHLNSMERVEFLRKKLQDVHNY (C-terminal tyrosine-amide, also called [Phe^23]PTH-(1-34)) [[F23, Y34]hPTH-(1-34)NH2]
	16	AVSEIQLLHDKGKSIQDLRRRFWLHHLIAEIHTAEY (C-terminal tyrosine-amide, also called [Ile^5, Trp^23]PTHrP-(1-36); [Ile^5,Trp^32]PTHrP-(1-36) [sic]) [[I5, W23, Y36]hPTHrP-(1-36)NH2]
	47	AVSEHQLLHDKGKSIQDLRRRFWLHHLIAEIHTAEY (C-terminal tyrosine-amide, also called [W23, Y36]hPTHrP-(1-36)NH2; [Trp^23]PTHrP-(1-36)) [[Trp^23,Tyr^36]hPTHrP-(1-36)NH2]
695		AVSEIQLLHDKGKSIQDLRRRFFLHHLIAEIHTAEY (C-terminal tyrosine-amide, also called [Ile^5]PTHrP-(1-36)) [[I5, Y36]hPTHrP-(1-36)NH2]
370		IQDLRRRFWLHHLIAEIHTAEY (C-terminal tyrosine-amide) [[W23, Y36]hPTHrP-(15-36)NH2]
4970		IQDLRRRFFLHHLIAEIHTAEY (C-terminal tyrosine-amide) [[Y36]hPTHrP-(15-36)NH2]
137		IQDLRRREWLHHLIAEIHTAEY (C-terminal tyrosine-amide) [[E22, W23, Y36]hPTHrP-(15-36)NH2]
606	7900	AVSEHQLLHDKGKSLNSMERVEWLRKKLQDVHNY (C-terminal tyrosine-amide, Synthetic PTH/PTHrP hybrid ligand; also called PTHrP-(1-14)/PTH-(15-34)) [Hybrid-1 hPTHrP-(1-14)/[Y34]hPTH-(15-34)NH2]
11	58	AVSEIQLMHNLGKHLASVERMQWLRKKLQDVHNY (norleucine at 8 and 21; C-terminal amide; 125I-labelled (chloramine-T) where used as tracer) [[Nle^8,21, Tyr^34]rat(r)PTH(1-34)NH2]
750	497	SVSEIQLMHNLGKHIQDLRRRFFLHHLIAEIHTY (C-terminal tyrosine-amide, Synthetic PTH/PTHrP hybrid ligand; also called PTH-(1-14)/PTHrP-(15-34)) [Hybrid-2 hPTH-(1-14)/[Y34]hPTHrP-(15-34)NH2]
11	19	AVSEHQLLHDKGKSIQDLRRREWLRKKLQDVHNY (C-terminal tyrosine-amide, Synthetic PTH/PTHrP hybrid ligand; also called PTHrP-(1-21)/PTH-(22-34)) [Hybrid-4 hPTHrP-(1-21)/[Y34]hPTH-(22-34)NH2]
	4970	AVSEHQLLHDKGKSIQDLERVEWLRKKLQDVHNY (C-terminal tyrosine-amide; radioiodinated in the direct binding test of paragraph 27, Synthetic PTH/PTHrP hybrid ligand; also called radioiodinated hybrid-5 peptide) [Hybrid-5 hPTHrP-(1-18)/[Y34]hPTH-(19-34)NH2]
6050		AVSEHQLLHDKGKSIQDLRRRFFLRKKLQDVHNY (C-terminal tyrosine-amide, Synthetic PTH/PTHrP hybrid ligand; also called PTHrP-(1-23)/PTH-(24-34)) [Hybrid-3 hPTHrP-(1-23)/[Y34]hPTH-(24-34)NH2]
